Assay results published in publication PMC5384220, “Highly selective inhibition of histone demethylases by de novo macrocyclic peptides” (Nature Communications, 2017).
Several values for one entry are separate records, joined by “and”; a condition that tells them apart may be missing. Equal entries are not always repeated.

How the values were obtained:
[1] = test system: H3K9me3/H3K36me3 in HeLa cells; conditions: 72 h treatment, nuclei count
KDM4A = target: T1, KDM4A (Homo sapiens, UniProt O75164); assay: AlphaScreen demethylase activity assay, KDM4A; format: biochemical; conditions: read-out: IC50 KDM4A, KDM4A 1-359
T1 construct: KDM4A 1-359 E.coli; Hexa-His (N); made in house; host or cells: E. coli
T1 sequence (O75164 1-359): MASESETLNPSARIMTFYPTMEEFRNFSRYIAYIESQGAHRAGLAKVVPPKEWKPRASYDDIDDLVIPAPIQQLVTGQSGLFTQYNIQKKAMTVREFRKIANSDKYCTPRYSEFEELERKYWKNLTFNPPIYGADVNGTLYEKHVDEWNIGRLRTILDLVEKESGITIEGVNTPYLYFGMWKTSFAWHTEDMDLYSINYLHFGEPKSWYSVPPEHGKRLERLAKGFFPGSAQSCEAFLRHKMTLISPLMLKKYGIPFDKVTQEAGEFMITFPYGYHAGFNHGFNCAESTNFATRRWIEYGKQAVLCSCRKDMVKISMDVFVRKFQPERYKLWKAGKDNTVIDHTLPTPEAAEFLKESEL
Experimental: (§1) IC50 values for KDM2–6 were measured using an AlphaScreen assay as described. The appropriate KDM (5 μl) was pre-incubated with an inhibitor (0.1 μl in DMSO) or DMSO for 15 min before the addition of 5 μl mixture of biotinylated peptide substrates, 2OG, ferrous ammonium sulfate (1–10 μM final) and ascorbate (100 μM final) to initiate the demethylation reaction. The reaction was quenched with 5 μl of 30 mM EDTA at predetermined reaction times for each enzyme (initial rate). Demethylated product was detected by addition of 5 μl of AlphaScreen donor and acceptor beads (AlphaScreen General IgG Detection Kit, 0.02 mg ml^−1 final each) pre-incubated with antibody. The plates were read after 1 h incubation in a BMG Labtech Pherastar FS plate reader. Data were normalized to a no enzyme control and IC50 values were calculated using nonlinear regression curve fits using GraphPad Prism. Assay buffer (50 mM HEPES pH 7.5, BSA (0.1% w/v) and Tween-20 (0.01% v/v)) was used throughout, except for dilution of stock ferrous ammonium sulfate solutions where water was used. The enzyme, substrate and antibody concentrations used are described in Supplementary Table 3. A fluorescence-based LSD1 inhibitor screening assay kit (Cayman, 700120) was used for KDM1/LSD1 assay. Assays for prolyl hydroxylase domain 2 and factor inhibiting HIF using matrix-assisted laser desorption/ionization–time of flight MS were performed as previously described. Prism 5.0 (GraphPad) was used to generate and to fit dose–response curves. IC50 values were determined by plotting percentage inhibition versus compound concentration relative to positive (vehicle) and negative (no enzyme) controls, using normalized dose–response (variable slope) fit. The reported values are the mean of multiple experiments (n≥3). The formaldehyde dehydrogenase coupled KDM assay was used to determine the mode of inhibition, using 0.5 μM His-KDM4A1–359. Prism 5.0 (GraphPad) was used to fit in mix-mode inhibition, to determine the kinetic parameters. Binding constants for CPs and H3(1–15)K9me3 were measured using biolayer interferometry (OctetRed 384, ForteBio) in buffer (50 mM HEPES (pH 7.5), 150 mM NaCl, 10 μM ammonium iron(II) sulphate). His-KDM4A1–359-Bio (70 nM) was immobilized onto super streptavidin biosensor and subjected to different peptide concentrations in buffer. Data analysis was performed using ForteBio Data Aalysis (v6.4).
(§2) Construct Expression [E] / nM [2OG] / µM [Fe(II)] / µM Peptide / nM Peptide sequence Antibody Source […]
(§3) Supplementary Table 3. AlphaScreen assay parameters for 2OG oxygenases used for this study. The table was dapted from 10. Assays were performed at 2OG concentration near the 2OG Km values determined experimentally.11 All enzymes were expressed and purified as described.10-12

KDM4C = target: T2, KDM4C (Homo sapiens, UniProt Q9H3R0); assay: AlphaScreen demethylase activity assay, KDM4C; format: biochemical; conditions: read-out: IC50 KDM4C
T2 construct: KDM4C 1-366 E.coli; made in house; host or cells: E. coli
T2 sequence (Q9H3R0 1-366): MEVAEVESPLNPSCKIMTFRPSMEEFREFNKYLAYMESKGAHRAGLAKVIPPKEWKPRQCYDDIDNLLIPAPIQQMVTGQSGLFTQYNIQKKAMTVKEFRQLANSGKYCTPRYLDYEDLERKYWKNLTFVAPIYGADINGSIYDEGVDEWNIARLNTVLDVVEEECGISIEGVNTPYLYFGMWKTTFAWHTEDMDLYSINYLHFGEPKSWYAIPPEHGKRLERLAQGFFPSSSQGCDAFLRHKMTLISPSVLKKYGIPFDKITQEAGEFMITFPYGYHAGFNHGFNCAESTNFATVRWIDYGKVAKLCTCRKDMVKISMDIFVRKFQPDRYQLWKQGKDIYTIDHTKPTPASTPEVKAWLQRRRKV
Experimental: as §1, §2, §3

KDM1A/LSD1 = target: T3, KDM1A/LSD1 (Homo sapiens, UniProt O60341); assay: Fluorescence-based LSD1 inhibitor screening assay; format: biochemical; conditions: read-out: IC50 KDM1A
T3 construct: purchased Cayman 700120
Experimental: as §1, with “Prism 5.0 (GraphPad) was used to fit in mix-mode inhibition, to determine the kinetic parameters.” left out, “His-KDM4A1–359-Bio (70 nM) was immobilized onto super streptavidin biosensor and subjected to different peptide concentrations in buffer. Data analysis was performed using ForteBio Data Aalysis (v6.4).” left out

Substance	Concentration giving significant reduction in cell numbers [1] [µM]	IC50 (KDM4A)	IC50 (KDM4C)	IC50 (KDM1A/LSD1) [nM]
DY(meV)YNTRSDAWRW(4FF)P(meC) [CP2.3]	> 10	110 nM	69 nM	
DY(meV)YNTRSDAWRWY(meT)(meC) [CP2.2]	> 10	100 nM	274 nM	
DYVYNTRSDAWRWYT(meC) [CP2.1]	> 10	29 nM	15 nM	
DYVYNTRSGWRWYTC [CP2]		< 50 nM and 42 nM	< 50 nM and 29 nM	> 10000
LYLKSRRSGLTWIPC [CP4]				> 10000
LYSKYTQSGVRWVC [CP5]		< 500 nM and 313 nM	123 nM	> 10000
